## Experimental logP (octanol/water) values from OPERA 2.9

Data: OPERA 2.9 data sets, kmansouri/OPERA on GitHub.

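OPERA's authors assembled the values from existing databases and did not measure them anew. The files give a single number for a compound and property, which may rest on several reports. Method and conditions are not stated for these values. The measured form (salt, isomer or mixture) is not always the one drawn. Unmarked limits or estimates from the upstream databases cannot be ruled out.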

The octanol-water partition coefficient is given as log10; larger values mean a more lipophilic compound.
Cells with "n/a" have no entry in this list.

| compound | name | logP (octanol/water) |
|---|---|---|
| CCc1cccc2c(CCO)c[nH]c12 | 7-Ethyltryptophol | 2.3 |
| C=CC(CC)CO (configuration not stated) | 2-ethylbut-3-en-1-ol | 1.7 |
| CC(C)C(=O)Nc1nc(-c2ccc(O)cc2O)cs1 | n/a | 2.066 |
| O=C(O[C@H]1CO[C@H]2[C@@H]1OC[C@H]2OC(=O)c1ccc(O)cc1)c1ccc(O)cc1 | 1,4:3,6-Dianhydro-2,5-bis-O-(4-hydroxybenzoyl)-D-glucitol | 2.8 |
| O=S(=O)([O-])c1cccc(Nc2ccc3cc(S(=O)(=O)[O-])c(/N=N\c4ccc(ON=[N+]([O-])c5ccc(/N=N\c6c(S(=O)(=O)[O-])cc7ccc(Nc8cccc(S(=O)(=O)[O-])c8)cc7c6[O-])c([O-])c5)cc4[O-])c([O-])c3c2)c1.[Cu+2].[Cu+2].[NH4+].[NH4+].[Na+].[Na+] | n/a | -5.003 |
| O=C1CCCCCCCCCCCCCCC1 | Cyclohexadecanone | 7.77 |
| Oc1c(Cl)cc(Cl)c2cccnc12 | Chloroxine | 3 |
| O=C1CCCC(=O)C1C(=O)c1ccc(C(F)(F)F)cc1[N+](=O)[O-] | 2-(2-Nitro-4-trifluoromethylbenzoyl)-1,3-cyclohexanedione | 1.6 |
| CCCCCCCCCCCCCC(=O)N(C)CC(=O)O | Glycine, N-methyl-N-(1-oxotetradecyl)- | 1.3 |
| CCOC(=O)c1cc(NC(=O)c2cccs2)ccc1OCC(O)CNC(C)(C)C (configuration not stated) | Tienoxolol | 2.79 |
| C=Cc1ccc(S(=O)(=O)[O-])cc1.[Na+] | Sodium 4-vinylbenzenesulfonate | -3.44 |
| C=CC(F)(F)C(F)(F)C(F)(F)C(F)(F)F | 3,3,4,4,5,5,6,6,6-Nonafluorohexene | 4.13 |
| CN1CCC[C@@H]1CCO[C@](C)(c1ccccc1)c1ccc(Cl)cc1 | Clemastine | 5.2 |
| C=C(C)C(=O)O[C@H]1C[C@@H]2CC[C@@]1(C)C2(C)C | Isobornyl methacrylate | 5.09 |
| NCCCCCCNCCCCCCN | N-(6-Aminohexyl)hexane-1,6-diamine | 1.3 |
| Cc1ccc(S(=O)(=O)n2cc(Br)c3cc(F)cnc32)cc1 | n/a | 4.2 |
| CO[C@H]1C[C@H](O[C@H]2[C@H](C)O[C@@H](O[C@@H]3C(C)=CC[C@@H]4C[C@@H](C[C@]5(C=C[C@H](C)[C@@H](C6CCCCC6)O5)O4)OC(=O)[C@@H]4C=C(C)[C@@H](O)[C@H]5OCC(=CC=C[C@@H]3C)[C@]54O)C[C@@H]2OC)O[C@@H](C)[C@@H]1O | Doramectin | 4.41 |
| CCOC(=O)C(C#N)C(C)=O (configuration not stated) | Ethyl 2-cyano-3-oxobutanoate | 0.95 |
| CCCC1CO1 (configuration not stated) | Oxirane, 2-propyl- | 1.29 |
| C=Cn1cc[n+](C)c1.COS(=O)(=O)[O-] | 3-Methyl-1-vinylimidazolium methyl sulfate | -3.45 |
| Cc1cc(C2(c3ccc(/N=N/c4c(S(=O)(=O)[O-])cc5ccc(O)cc5c4O)c(C)c3)CCCCC2)ccc1/N=N/c1c(S(=O)(=O)[O-])cc2ccc(O)cc2c1O.[Na+].[Na+] | n/a | -1.838 |
| COC(=O)[C@H]1[C@H]2C[C@@H]3c4[nH]c5cc(OC)ccc5c4CCN3C[C@H]2C[C@@H](OC(=O)c2cc(OC)c(OC)c(OC)c2)[C@@H]1OC | Reserpine | 3.2 |
| CN1[C@@H]2CCC[C@H]1C[C@@H](NC(=O)c1nn(C)c3ccccc13)C2 | Granisetron | 2.6 |
| CCN[P+]([O-])(OCC)O/N=C(/C#N)c1ccc([N+](=O)[O-])cc1 (stereo partly drawn) | n/a | 1.76 |
| FC1CC(F)(F)C(F)(F)C1(F)F (configuration not stated) | 1H,1H,2H-Perfluorocyclopentane | 2.4 |
| C=CCOC(=O)CCC1CCCCC1 | Prop-2-en-1-yl 3-cyclohexylpropanoate | 4.28 |
| Cc1ccc(N)c(Cl)c1O | 5-Amino-6-chloro-o-cresol | 1.644 |
| CC1(C)C2CCC1(CS(=O)(=O)O)C(=O)C2.O=C(O)C(c1ccccc1Cl)N1CCc2sccc2C1 (configuration not stated) | n/a | 4.4 |
| Cc1c(Nc2nc(Cl)nc(Nc3cccc(S(=O)(=O)[O-])c3)n2)c(C)c(S(=O)(=O)[O-])c(C)c1Nc1cc(S(=O)(=O)[O-])c(N)c2c1C(=O)c1ccccc1C2=O.[Na+].[Na+].[Na+] | n/a | -3.88 |
| CN1CCCC(CC2c3ccccc3Sc3ccccc32)C1 (configuration not stated) | Metixene | 4.7 |
| CC(=O)N1CCC[C@H]1C(=N)O | 1-Acetylpyrrolidine-2-carboximidic acid | -1.34 |
| COc1ccc(C(=O)CSc2cccc(OC)c2)cc1 | 1-(4-Methoxyphenyl)-2-[(3-methoxyphenyl)sulfanyl]ethan-1-one | 3.71 |
| CN(c1ccccc1)S(=O)(=O)c1cc(O)c2c(/N=N/c3ccc(NC(=O)CCl)cc3S(=O)(=O)[O-])c(N)ccc2c1.[Na+] | n/a | 0.97 |
| CC(S)CC(=O)OCC(COC(=O)CC(C)S)(COC(=O)CC(C)S)COC(=O)CC(C)S (configuration not stated) | n/a | 3.99 |
| C=CC(=O)OC(C)CCCCCC (configuration not stated) | 2-Octyl acrylate | 4.68 |
| CO/N=C(\C(=O)N[C@@H]1C(=O)N2C(C(=O)OCOC(=O)C(C)(C)C)=C(COC(C)=O)CS[C@H]12)c1csc(N)n1 | n/a | 2.62 |
| CCN1CCOCC1.Cc1ccc(C(=O)CCC(=O)O)cc1.Cc1ccc(C(=O)CCC(=O)O)cc1 | n/a | 0.116 |
| Oc1ccc(F)cc1F | 2,4-Difluorophenol | 1.46 |
| CO/N=C(/C(=O)OC)c1ccccc1CCl | Methyl (2E)-(2-(chloromethyl)phenyl)(methoxyimino)acetate | 2.1 |
| CCCCCOC(=O)c1c(Cl)c(Cl)cc(Cl)c1OC(=O)C(=O)Oc1c(Cl)cc(Cl)c(Cl)c1C(=O)OCCCCC | Bis(2,4,5-trichloro-6-carbopentoxyphenyl) oxalate | 5.211 |
| CCN(CC)c1ccc(C(=N)c2ccc(N(CC)CC)cc2)cc1.Cl | n/a | 1.757 |
| CCCCC(CC)COC(=O)C(C#N)=C(c1ccccc1)c1ccccc1 (configuration not stated) | 2-Ethylhexyl-2-cyano-3,3-diphenylacrylate | 6.1 |
| C=CC1=C(C(=O)O)N2C(=O)[C@@H](NC(=O)/C(=N\O)c3csc(N)n3)[C@H]2SC1 | Cefdinir | -0.2 |
| NCCNCCNCCN | N1,N2-Bis(2-aminoethyl)-1,2-ethanediamine | -1.955 |
| Nc1c(S(=O)(=O)[O-])cc(NC2CCCCC2)c2c1C(=O)c1ccccc1C2=O.[Na+] | C.I. Acid Blue 62 | 0.425 |
| CCCCCCOCC(O)CO (configuration not stated) | 3-Hexyloxypropylene glycol | 1.81 |
| COc1ccccc1N1CCN(CCNC(=O)C2CCCCC2)CC1 | n/a | 2.8 |
| O=S(=O)([O-])c1ccc2c(/N=N/c3ccc(/N=N/c4ccc(Nc5ccccc5)c(S(=O)(=O)[O-])c4)c4ccccc34)c(O)ccc2c1.[Na+].[Na+] | n/a | -1.984 |

The 3 highest values of logP (octanol/water) among the entries above:

| compound | name | logP (octanol/water) |
|---|---|---|
| O=C1CCCCCCCCCCCCCCC1 | Cyclohexadecanone | 7.77 |
| CCCCC(CC)COC(=O)C(C#N)=C(c1ccccc1)c1ccccc1 (configuration not stated) | 2-Ethylhexyl-2-cyano-3,3-diphenylacrylate | 6.1 |
| CCCCCOC(=O)c1c(Cl)c(Cl)cc(Cl)c1OC(=O)C(=O)Oc1c(Cl)cc(Cl)c(Cl)c1C(=O)OCCCCC | Bis(2,4,5-trichloro-6-carbopentoxyphenyl) oxalate | 5.211 |